Sequences of proteins named here, by UniProt entry; tags and fusion partners are left off. A line that says so, or that is headed by a name, gives the form on record, which may keep a tag or linker.
UniProt P15692, other isoform, or with tags, fused parts or gaps: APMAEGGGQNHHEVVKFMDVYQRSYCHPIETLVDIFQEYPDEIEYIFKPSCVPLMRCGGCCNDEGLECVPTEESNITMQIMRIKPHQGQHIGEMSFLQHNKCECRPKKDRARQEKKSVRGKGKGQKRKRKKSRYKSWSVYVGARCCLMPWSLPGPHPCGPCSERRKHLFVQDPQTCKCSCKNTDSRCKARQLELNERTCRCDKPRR

In US20230080842A1 (WUHAN YZY BIOPHARMA, published 2023):

Target: T1, Human VEGFA (human, UniProt P15692 207-395)
T1 construct: also called VEGF antigen; not shown: His tag
Assay: ELISA, plate coated with His-tagged antigen

B1: G631mAb (antibody, human IgG1, kappa, V domains shown)
VH: EVQLVESGGGLVQPGGSLRLSCAASGFTISDYWIHWVRQAPGKGLEWVAGITPAGGYTYYADSVKGRFTISADTSKNTAYLQMNSLRAEDTAVYYCARFVFFLPYAMDYWGQGTLVTVSS
VL: DIQMTQSPSSLSASVGDRVTITCRASQDVSTAVAWYQQKPGKAPKLLIYSASFLYSGVPSRFSGSGSGTDFTLTISSLQPEDFATYYCQQGYGNPFTFGQGTKVEIKR
notes: anti-VEGF monoclonal antibody, human IgG1 constant domains, kappa
EC50: 0.03 nM
